# Legend:
# Amino acid sequences for entries named in this document (tags omitted).
# UniProt O43614, whole entry: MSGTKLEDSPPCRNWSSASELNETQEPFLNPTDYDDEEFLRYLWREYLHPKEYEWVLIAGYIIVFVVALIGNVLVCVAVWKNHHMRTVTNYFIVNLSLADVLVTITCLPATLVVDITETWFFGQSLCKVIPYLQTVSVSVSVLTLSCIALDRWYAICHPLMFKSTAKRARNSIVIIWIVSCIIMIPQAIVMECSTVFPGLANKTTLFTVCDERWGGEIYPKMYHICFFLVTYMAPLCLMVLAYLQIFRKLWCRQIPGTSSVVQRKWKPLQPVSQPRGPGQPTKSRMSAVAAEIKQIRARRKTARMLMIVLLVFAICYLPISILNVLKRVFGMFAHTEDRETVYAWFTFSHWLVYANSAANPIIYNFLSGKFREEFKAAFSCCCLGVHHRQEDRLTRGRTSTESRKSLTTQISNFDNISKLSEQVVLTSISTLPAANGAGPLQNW
# [1] = tested on: rats; experiment: Rat telemetry polysomnography (time in active wake and sleep stages); format: in vivo; conditions: 30 mg/kg p.o., dosed mid-active phase
# Experimental: The mean time spent in sleep stages was determined in radio-telemetry-implanted mice, rats, dogs, and rhesus monkeys as first described by Renger and colleagues and subsequently by Winrow and colleagues with minor modifications. For baseline studies, recordings were taken continuously from unperturbed mice, rats, dogs, and monkeys for 6, 6, 10, or 5 days, respectively, and the mean time spent in all sleep stages in 30-min intervals were averaged and plotted onto a single 24-h period (Figure 1). Almorexant is a DORA [43] that was previously in clinical development for the treatment of insomnia. The clinical development program for almorexant was terminated in early 2011. […] In all cases, mean time in active wake, quiet wake, SWS, and REM sleep was determined for each 30-min interval for 3 days of each condition and averaged onto a single 24-h period. […] Statistical differences in mean time spent in active wake, quiet wake, SWS, and REM sleep between vehicle- and compound-treated groups at 30-min time points were determined by a linear mixed-effects model applied t-test.
# [2] = target: Orexin 2 receptor (Homo sapiens, UniProt O43614); experiment: Orexin 2 receptor binding kinetics
# [3] = tested on: rhesus monkeys; experiment: Monkey Delayed Match to Sample (DMS) task; conditions: 30 mg/kg p.o., versus vehicle
# [4] = tested on: rhesus monkeys; experiment: Monkey Serial Choice Reaction Time (SCRT) task; conditions: 30 mg/kg p.o., versus vehicle
# [5] = rhesus monkeys, 30 mg/kg p.o.
# [6] = tested on: rhesus monkeys; conditions: 30 mg/kg, active-phase dosing, quantified over 2 h; cited from earlier work
# [7] = tested on: rhesus monkeys; conditions: sleep-promoting doses; cited from earlier work
compound,measurement,setting,value
C[C@@H]1CC[C@@H](COc2ccc(F)cn2)CN1C(=O)c1cc(F)ccc1-c1ncccn1,Duration of active wake attenuation following treatment,[1],up to 8 h
same,Duration of increase in delta and REM sleep following treatment,[1],up to 6 h
same,KOFF (dissociation constant),[2],0.000313 s⁻¹
same,KON (association constant),[2],9.19e+06 mol⁻¹ min⁻¹
same,T1/2 OFF (half-life off-rates),[2],37.8 min
same,T1/2 ON (binding half-life),[2]; almorexant applied 3-fold above its Kd (value an underestimate),24.7 min
same,Kd,[2]; binding constant,834 pM
same,"Next-day recognition memory (DMS), 14 h after dosing",[3],no attenuation of in performance was observed
same,"Next-day attention (SCRT, correct responses to shortest cues), 16 h after dosing",[4],not observed
same,Cmax,[5]; read-out: Cmax (plasma),134 nM
same,Plasma level 17 h after treatment (three hours after DMS task),[5],61 nM
same,Time of plasma Cmax,[5],2 h
same,Attenuation of active wake relative to vehicle,[6],40.1 min
same,Cognitive assessment in DMS and SCRT tasks within 2 h following treatment,[7],no impairment
